Test results: article PMC10901892 (Scientific Reports, 2024)

Tests used:
[1] = test system: isolated mouse liver mitochondria; conditions: succinate and oligomycin A, nonlinear fit in GraphPad Prism

Compound: O=[N+]([O-])c1cccc([N+](=O)[O-])c1O
- EC50, fold stimulation of oxygen consumption [1]: 136 µM
- drug tissue concentration, heart (male C57BL/6 mice, 5 mg/kg, two hours): BLQ
- health of animals during the study (mice, 5 mg/kg): healthy throughout the study duration
- tissue concentrations (in words) (mice, 5 mg/kg intraperitoneally): highest concentrations found in the spleen and lung
